The experiment has as its target T1, HLA-DP DPB1*0201 (human).
T1 chain 1: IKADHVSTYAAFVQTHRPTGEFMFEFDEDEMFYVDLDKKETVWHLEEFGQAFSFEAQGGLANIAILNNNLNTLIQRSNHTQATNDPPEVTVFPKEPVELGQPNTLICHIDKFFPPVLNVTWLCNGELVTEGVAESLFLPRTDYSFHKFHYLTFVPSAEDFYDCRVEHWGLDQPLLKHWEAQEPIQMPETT
T1 chain 2: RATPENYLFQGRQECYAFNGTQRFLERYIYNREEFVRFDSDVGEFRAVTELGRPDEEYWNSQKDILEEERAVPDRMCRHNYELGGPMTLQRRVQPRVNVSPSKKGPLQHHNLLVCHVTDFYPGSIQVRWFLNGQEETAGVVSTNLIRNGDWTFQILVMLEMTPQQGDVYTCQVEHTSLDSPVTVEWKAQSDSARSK
Nature of the experiment: inhibition of radiolabeled peptide binding to purified HLA-DP.

For the molecule FSGVAATESAYLAYR [Der f 1 (136-150) peptide 3324.0666], the half-maximal inhibitory concentration (IC50) – broadly, the concentration that inhibits the measured activity by half – is 8.26 µM.

Values taken from patent US20150004189A1 (published 2015).
